Measured values reported in US20240228488A1 (TAKEDA PHARMACEUTICAL COMPANY LIMITED, priority 2021, published 2024).
Like-named read-outs stand apart in the source and are kept apart here.

Chains of the proteins cited; added tags and fusions are not shown. Residues count along the entry.
UniProt P03952, 391-638 limits assumed: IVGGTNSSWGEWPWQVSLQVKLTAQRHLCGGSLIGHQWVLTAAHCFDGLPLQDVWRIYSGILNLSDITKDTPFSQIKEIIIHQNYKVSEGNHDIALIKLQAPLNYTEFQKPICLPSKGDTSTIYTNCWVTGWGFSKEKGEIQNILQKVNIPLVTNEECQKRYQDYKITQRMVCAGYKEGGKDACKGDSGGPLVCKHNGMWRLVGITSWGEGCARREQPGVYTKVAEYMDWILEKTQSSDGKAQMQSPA
UniProt P03952, 20-390 partner limits assumed: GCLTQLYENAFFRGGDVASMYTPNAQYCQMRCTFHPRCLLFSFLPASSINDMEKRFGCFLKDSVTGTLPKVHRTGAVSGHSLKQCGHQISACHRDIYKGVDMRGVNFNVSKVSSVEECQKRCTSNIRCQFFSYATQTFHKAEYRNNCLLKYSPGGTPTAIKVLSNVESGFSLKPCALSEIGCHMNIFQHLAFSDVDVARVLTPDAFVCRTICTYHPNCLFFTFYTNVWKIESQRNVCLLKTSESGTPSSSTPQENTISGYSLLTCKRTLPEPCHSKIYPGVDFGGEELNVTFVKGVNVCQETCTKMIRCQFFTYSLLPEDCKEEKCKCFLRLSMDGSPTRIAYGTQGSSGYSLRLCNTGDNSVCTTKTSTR

How the values were obtained:
[1] = molecular target: human activated kallikrein enzyme (Homo sapiens, UniProt P03952); experiment: Plasma kallikrein inhibition, fluorogenic PFR-AMC substrate, 500 pM activated kallikrein format
plasma kallikrein = plasma kallikrein (Homo sapiens, UniProt P03952); experiment: Neat human plasma assay, FXIIa contact pathway-activated, PFR-AMC substrate; details: read-out: Human Plasma Assay: IC90, citrated human plasma 78% final, 10 nM human FXIIa, 100 μM PFR-AMC
[2] = read-out: Primary Dose Response Assay: Average EC50, 300 uM PFR-AMC, 30 min preincubation, 10 min reaction

Row | SMILES | EC50 [1, 2] | IC90 (plasma kallikrein) | EC50 ([1]; read-out: Primary Dose Response Assay: Average EC50, 300 uM PFR-AMC, 30 min preincubation, 10 min reaction, tested form: formate) | IC90 (plasma kallikrein; tested form: formate)
1 | Cc1ccnc([C@H]2C[C@@H]2C(=O)Nc2cc(OC(C)c3cn4cc(C5CC5)cc(N5CC(=O)N(C)C5=O)c4n3)cnn2)n1 (some centres unmarked) | < 1 nM | 400 to 1500 nM | – | –
2 | Cc1ccnc([C@H]2C[C@@H]2C(=O)Nc2cc(N[C@H](C)c3cn4cc(C5CC5)cc(N5CC6CC6C5=O)c4n3)ncn2)n1 (single isomer, unassigned) | < 1 nM | – | – | –
3 | O=C(Nc1cc(NCc2cn3cc(C4CC4)cc(N4CC5CC5C4=O)c3n2)ccn1)[C@H]1C[C@@H]1c1cccc(Cl)c1 (single isomer, unassigned) | < 1 nM | 400 to 1500 nM | – | –
4 | O=C(Nc1cc(NCc2cn3cc(C4CC4)cc(N4CC5CC5C4=O)c3n2)ncn1)[C@H]1C[C@@H]1c1cccc(Cl)c1 (single isomer, unassigned) | 1 to 10 nM | 1500 to 10000 nM | – | –
5 | O=C(Nc1cc(NCc2cn3cc(C4CC4)cc(N4CCOCC4=O)c3n2)ncn1)C1CC1c1cccc(Cl)c1 (single isomer, unassigned) [76] | 100 to 1000 nM | – | – | –
6 | O=C(Nc1cc(NCc2cn3cc(C4CC4)cc(N4C(=O)C5CCC4C5)c3n2)ccn1)[C@H]1C[C@@H]1c1cccc(Cl)c1 (single isomer, unassigned) [93] | 1 to 10 nM | – | – | –
7 | O=C(Nc1cc(NCc2cn3cc(C4CC4)cc(N4C(=O)C5CCC4C5)c3n2)ccn1)[C@H]1C[C@@H]1c1cccc(Cl)c1 (single isomer, unassigned) [94] | < 1 nM | – | – | –
8 | Cc1ccnc(C2CC2C(=O)Nc2cc(NCc3cn4cc(C5CC5)cc(N5CC6CC6C5=O)c4n3)ncn2)n1 (single isomer, unassigned) [318] | < 1 nM | 400 to 1500 nM | – | –
9 | Cc1ccnc(C2CC2C(=O)Nc2cc(NCc3cn4cc(C5CC5)cc(N5CC6CC6C5=O)c4n3)ncn2)n1 (single isomer, unassigned) [321] | 100 to 1000 nM | – | – | –
10 | CN1C(=O)CN(c2cc(C3CC3)cn3cc(CNc4cc(NC(=O)C5CC5(F)c5cccc(Cl)c5)ncn4)nc23)C1=O (single isomer, unassigned) [333] | < 1 nM | 400 to 1500 nM | – | –
11 | Cc1csc(C2CC2C(=O)Nc2cc(NCc3cn4cc(C5CC5)cc(N5CC(=O)N(C)C5=O)c4n3)ncn2)n1 (single isomer, unassigned) [447] | < 1 nM | < 400 nM | – | –
12 | Cc1csc(C2CC2C(=O)Nc2cc(NCc3cn4cc(C5CC5)cc(N5CC(=O)N(C)C5=O)c4n3)ncn2)n1 (single isomer, unassigned) [448] | 100 to 1000 nM | – | – | –
13 | Cc1ccnc([C@@H]2C[C@H]2C(=O)Nc2cc(NC(C)c3cn4cc(C5CC5)cc(N5CC(=O)N(C)C5=O)c4n3)ncn2)n1 (single isomer, unassigned) [450] | 100 to 1000 nM | – | – | –
14 | CN1C(=O)CN(c2cc(C3CC3)cn3cc(CNc4cc(NC(=O)C5C(c6cccc(Cl)c6)C5(F)F)ncn4)nc23)C1=O (single isomer, unassigned) [545] | < 1 nM | 1500 to 10000 nM | – | –
15 | Cc1ccnc(C2(F)CC2C(=O)Nc2cc(N[C@H](C)c3cn4cc(C5CC5)cc(N5CC(=O)N(C)C5=O)c4n3)nc(C)n2)n1 (single isomer, unassigned) [548] | 100 to 1000 nM | – | – | –

Other lines, results leading:

Row | EC50 [1, 2] | IC90 (plasma kallikrein) | EC50 ([1]; read-out: Primary Dose Response Assay: Average EC50, 300 uM PFR-AMC, 30 min preincubation, 10 min reaction, tested form: formate) | IC90 (plasma kallikrein; tested form: formate) | SMILES
16 | 100 to 1000 nM | – | – | – | CN1C(=O)CN(c2cc(C3CC3)cn3cc(CNc4cc(NC(=O)C5CC5(F)c5cccc(Cl)c5)ncn4)nc23)C1=O (racemic) [330]
17 | 1 to 10 nM | – | – | – | CN1C(=O)CN(c2cc(C3CC3)cn3cc(CNc4cc(NC(=O)C5CC5(F)c5cccc(Cl)c5)ncn4)nc23)C1=O (racemic) [331]
18 | < 1 nM | 400 to 1500 nM | – | – | CC1CCC(=O)N1c1cc(C2CC2)cn2cc(CNc3ccnc(NC(=O)[C@H]4C[C@@H]4c4cccc(Cl)c4)c3)nc12 (single isomer, unassigned)
19 | 10 to 100 nM | – | < 1 nM | < 400 nM | N#Cc1ccc(Cl)cc1C1CC1C(=O)Nc1cc(NCc2cn3cc(C4CC4)cc(N4CCCC4=O)c3n2)ccn1 (single isomer, unassigned)
20 | < 1 nM | – | – | – | N#Cc1ccc(Cl)cc1C1CC1C(=O)Nc1cc(NCc2cn3cc(C4CC4)cc(N4CCCC4=O)c3n2)ncn1 (single isomer, unassigned)
21 | < 1 nM | – | – | – | O=C(Nc1cc(NCc2cn3cc(C4CC4)cc(N4CCOCC4=O)c3n2)ncn1)C1CC1c1cccc(Cl)c1 (single isomer, unassigned) [75]
22 | < 1 nM | 400 to 1500 nM | – | – | Cc1ccnc(C2CC2C(=O)Nc2cc(NCc3cn4cc(C5CC5)cc(N5CC6CC6C5=O)c4n3)ncn2)n1 (single isomer, unassigned) [319]
23 | 100 to 1000 nM | – | – | – | Cc1ccnc(C2CC2C(=O)Nc2cc(NCc3cn4cc(C5CC5)cc(N5CC6CC6C5=O)c4n3)ncn2)n1 (single isomer, unassigned) [320]
24 | 100 to 1000 nM | – | – | – | CN1C(=O)CN(c2cc(C3CC3)cn3cc(CNc4cc(NC(=O)C5CC5(F)c5cccc(Cl)c5)ncn4)nc23)C1=O (single isomer, unassigned) [332]
25 | > 6000 nM | – | – | – | Cc1ccnc([C@@H]2C[C@H]2C(=O)Nc2cc(NC(C)c3cn4cc(C5CC5)cc(N5CC(=O)N(C)C5=O)c4n3)ncn2)n1 (single isomer, unassigned) [453]
26 | 100 to 1000 nM | – | – | – | CN1C(=O)CN(c2cc(C3CC3)cn3cc(CNc4cc(NC(=O)C5C(c6cccc(Cl)c6)C5(F)F)ncn4)nc23)C1=O (single isomer, unassigned) [544]
27 | < 1 nM | – | – | – | Cc1ccnc(C2(F)CC2C(=O)Nc2cc(N[C@H](C)c3cn4cc(C5CC5)cc(N5CC(=O)N(C)C5=O)c4n3)nc(C)n2)n1 (single isomer, unassigned) [547]
